Compound activity: PubChem BioAssay, National Center for Advancing Translational Sciences (NCATS)
miR-21 FLuc: miR-21 reporter, rising signal; HeLa miR-21 FLuc reporter, luciferase, 48 h; Potency, µM (titrated, usually from 38.3 µM), without a hit: top-dose reporter change, positive = more light; AID 2288; 340,000 tested, under 10 active; active = well fitted rising curve with a large enough effect; inconclusive = small, poorly fitted or top-dose-only effect; inactive = no such curve, though single readings can be large or run the other way;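 further: % of control where 0% means no effect; miR-21 action dims this reporter so a rising signal means less miR-21 action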
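Using DMEM plus 10% FBS, HeLa miR-21-FLuc cells are incubated with test compounds (final up to about 40uM) for 48 hours; firefly luciferase signal is then imaged following reagent-mediated lysis.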
Apoferritin bind: candidate novel general anesthetic via apoferritin binding; P02791; apoferritin/1-aminoanthracene competitive binding, fluorescence; Potency, µM (doses to about 77.5 µM), without a hit: top-dose activity change, negative = displacement, most hits filed as inhibitors; 0.074% of 350,000 active; note: potency is the fitted concentration of half-maximal effect; % is set by controls: 0 for no effect and ±100 for the full control effect; nearly all actives have a fitted effect of over 20% in size
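Read-out: endpoint 1-AMA fluorescence, excitation 380 nm and emission 535 nm, after compounds sit 10 min at room temperature with 10 uM horse-spleen apoferritin in 50% saturated 1-AMA/PBS. Values come from four-parameter Hill fits.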
LDHA inh: blocks human lactate dehydrogenase A | P00338 | purified LDHA, NADH/diaphorase-resazurin fluorescence; stronger effect = lower value | activity change, % (values are at about 110 or 230 µM) | 0.15% of 480,000 active | AID 1347041; in the data active = activity change below about -30%; inconclusive = mostly about -25% to -30%;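 note: plate controls were DMSO wells for no effect and wells without enzyme for full effect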
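Human LDH5 at 2 nM final in Tris HCl pH 7.4 with 0.06 mM NADH and 0.2 mM pyruvate, reacted 5 minutes at room temperature. Remaining NADH coupled via diaphorase/resazurin; resorufin fluorescence read at 0 and 20 minutes, normalized to enzyme-free and DMSO wells.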
* marks the source's active call; other numbers are inactive results; u = inconclusive; x = no result given. Hits are enriched below; roughly 0.2% of the tested compounds scored in any of these assays. Unless noted, calls come from the whole dose curve; as a rule, active = well fitted curve in the direction sought with a large enough effect; inconclusive = small, poorly fitted or top-dose-only effect, or another doubt; inactive = no such curve, though single readings can be large; an effect the other way counts as inactive or inconclusive.

SMILES	miR-21 FLuc	Apoferritin bind	LDHA inh
Cc1cc([N+](=O)[O-])ccc1NCc1ccccc1	6%	11µM*	3
COc1ccccc1NCc1ccc([N+](=O)[O-])s1	-3%	u	1
Cc1cc([N+](=O)[O-])ccc1NCc1ccc2ccccc2c1	2%	u	1
Cc1cccc(NCc2ccc([N+](=O)[O-])s2)c1	19%	16µM*	2
Cc1ccc(NCc2ccc([N+](=O)[O-])s2)cc1	-13%	16µM*	1
CC(=O)Nc1ccc(NCc2ccc(C)s2)cc1	-37%	u	-4
Cc1ccccc1NCc1ccc([N+](=O)[O-])s1	16%	8.9µM*	-5
O=[N+]([O-])c1ccc(CNc2cccc(F)c2)s1	11%	u	-6
O=C(O)C(c1c[nH]c2cc(F)ccc12)N1CCN(c2ccccc2)CC1 (centres undefined)	x	x	-18
C[C@H](CO)N1C[C@H](C)[C@@H](CN(C)S(=O)(=O)c2cccc(F)c2)OCc2cn(nn2)CCCC1=O	x	x	-34*
C[C@@H]1CN([C@@H](C)CO)C(=O)CCCn2cc(nn2)CO[C@H]1CN(C)S(=O)(=O)c1cccc(F)c1	x	x	-2
CCC(=O)Nc1ccc(NC(=O)c2oc3ccccc3c2C)cc1	20%	43%	-9
Cc1c(C(=O)NNC(=O)Nc2ccc([N+](=O)[O-])cc2)oc2ccccc12	9%	u	-44*
C=CCc1c(C)nc(Nc2nc(C)c3ccccc3n2)[nH]c1=O	x	x	-3
Cc1cccc(CN2CCN(Cc3ccco3)CC2)c1	-4%	-10%	-32*
CCc1ccc(CN2CCN(C(=O)c3ccco3)CC2)cc1	-7%	-8%	u
Clc1cccc(CN2CCN(Cc3ccco3)CC2)c1	-6%	2%	-21
O=C(c1ccco1)N1CCN(Cc2cccc(F)c2)CC1	-6%	-1%	-32*
COc1cccc(Nc2nc3ccccc3nc2NS(=O)(=O)c2ccc(C)c(C)c2)c1	x	x	7
CC(OC(=O)C12CC3CC(CC(C3)C1)C2)C(N)=O (centres undefined)	x	x	-2
Cc1nc2sc3c(c2c2nc(C(=O)NCc4ccco4)nn12)CC(C)(C)OC3	x	x	8
CCOC(=O)c1cn(CC)nc1S(=O)(=O)N1CCOCC1	x	x	9
Cc1cc(C)c2nc(Nc3nc(C(C)C)cc(=O)[nH]3)nc(C)c2c1	x	x	-32*
Cc1nc(Nc2nc(C(C)C)cc(=O)[nH]2)nc2c(C)cccc12	x	x	9
COc1ccc(Cl)cc1C(=O)Nc1c(N2CCCC2)c2ccccc2oc1=O	x	x	-2

Entries shown so far containing fluorine:
SMILES	miR-21 FLuc	Apoferritin bind	LDHA inh
O=[N+]([O-])c1ccc(CNc2cccc(F)c2)s1	11%	u	-6
O=C(O)C(c1c[nH]c2cc(F)ccc12)N1CCN(c2ccccc2)CC1 (centres undefined)	x	x	-18
C[C@H](CO)N1C[C@H](C)[C@@H](CN(C)S(=O)(=O)c2cccc(F)c2)OCc2cn(nn2)CCCC1=O	x	x	-34*
C[C@@H]1CN([C@@H](C)CO)C(=O)CCCn2cc(nn2)CO[C@H]1CN(C)S(=O)(=O)c1cccc(F)c1	x	x	-2
O=C(c1ccco1)N1CCN(Cc2cccc(F)c2)CC1	-6%	-1%	-32*

Following part:
SMILES	miR-21 FLuc	Apoferritin bind	LDHA inh
Cc1cc(C)c2nc(SCC(=O)NC(N)=O)cc(C)c2c1	x	x	-34*
Cc1cc(C)c2nc(SCC(=O)Nc3sccc3C(N)=O)cc(C)c2c1	x	x	3
CCc1cccc(NC(=S)N(CCC(C)C)C(C)c2cccs2)c1 (centres undefined)	x	x	4
N#Cc1ccccc1S(=O)(=O)N1CCN(CC(O)CN2CCOCC2)CC1 (centres undefined)	x	x	-45*
COc1ccc(OC)c(S(=O)(=O)N2CCN(CC(O)CN3CCOCC3)CC2)c1 (centres undefined)	x	x	-4
CC(Sc1n[nH]c(=O)n1C1CC1)C(=O)c1ccc(F)cc1 (centres undefined)	x	x	15
COc1ccccc1-n1c2c(cc(C#N)c1=O)C(=O)CC(C)(C)C2	x	x	2
Cc1ccc(C(=O)Nc2ccc3oc(-c4ccncc4)nc3c2)cc1	x	x	8
COc1ccc(C(=O)Nc2ccc3oc(-c4ccncc4)nc3c2)cc1Br	x	x	-33*
CC1=C/C(=N/NC(=S)NC2CCCCC2)CC(C)(C)C1	x	x	-1
COc1cc(C)c(NC(=O)Cn2cnc3c2c(=O)n(C)c(=O)n3C)cc1OC	x	x	5
C[n+]1cnn2c1SCC1(COC1)C2	-2%	-9%	-58*
COc1cc(/C=C/C(=O)c2ccccc2OC)ccc1OC(F)F	x	x	7
COC(=O)c1ccccc1OCCCCN1CC(C)OC(C)C1 (centres undefined)	-7%	-4%	-31*
COC(=O)c1ccccc1OCCOc1ccccc1C(=O)OC	-11%	-9%	-2
CCc1ccc(CNC(=O)c2cc3cc(C)ccc3[nH]2)cc1	x	x	9
CSC1=C(C#N)C(c2ccccc2C)C(C#N)=C(N)N1 (centres undefined)	-35%	-22%	-36*
CSC1=C(C#N)C(c2ccccc2Cl)C2=C(N1)c1ccccc1C2=O (centres undefined)	-19%	-24%	0
CCn1c(C)c(C(C)=O)c2cc(OCC(O)CN3CCOCC3)ccc21 (centres undefined)	x	x	6
CC1C(OC(=O)c2ccc(CS(C)(=O)=O)cc2)CC2CC1C2(C)C (centres undefined)	x	x	15
CC(C)CCn1cnc2c1c(=O)n(Cc1ccccc1C#N)c(=O)n2Cc1ccccc1	x	x	-3
O=C(Nc1cccc(Cl)c1)N1CCCC1	-13%	-12%	-4
CC1CCCCN1C(=O)Nc1cccc(Cl)c1 (centres undefined)	-25%	22µM*	-11
NS(=O)(=O)c1cc(Br)c2c(c1)S(=O)(=O)NCN2	x	x	-37*
CSc1nc(-c2ccco2)nn1C(=O)c1cccs1	-5%	-20%	-1
Later entries.
SMILES	miR-21 FLuc	Apoferritin bind	LDHA inh
O=C(c1cccs1)n1nc(-c2ccco2)nc1SCc1ccccc1	-45%	28µM*	2
c1ccc(-c2cc(-c3ccccc3)ncn2)cc1	x	x	-5
C[n+]1cnc(-c2ccccc2)cc1-c1ccccc1	-11%	1%	-49*
COC(=O)c1cccc(CNc2ccc3c4c(cccc24)CC3)c1	x	x	2
Cc1ccc(NC(=O)CSc2nc(-c3ccc(C(C)(C)C)cc3)nc3cc(=O)[nH]n23)cc1C	1%	-20%	-41*
CCOc1ccc(-c2nc(SCC(=O)Nc3ccc(C)c(C)c3)n3[nH]c(=O)cc3n2)cc1	-23%	-1%	-11
COc1ccc(NC(=O)/C=C/c2nc3ccccc3o2)c(OC)c1	x	x	5
CCCCOc1ccc(NC(=O)C(=O)NCCCn2ccnc2)cc1	-2%	u	-4
CCCCCCOc1ccc(C(=O)NCCCn2ccnc2)cc1	23%	14µM*	0
O=C(c1cc(F)cc(F)c1)N(Cc1ccco1)C1CC1	x	x	0
CC(C)CC1NC(=O)N(Cc2coc(-c3ccccc3)n2)C1=O (centres undefined)	x	x	-11
CCN(CC)C(=O)CN(C1CCCCC1)S(=O)(=O)c1ccc(Br)cc1	x	x	-37*
O=C(CN(C1CCCCC1)S(=O)(=O)c1ccc(Br)cc1)N1CCCCCC1	x	x	-7
CSC(C)C(=O)Nc1ccc(C)c(I)c1 (centres undefined)	x	x	11
CC1CCCCN1CCNC(=O)C1CCN(c2nc3cccnc3s2)CC1 (centres undefined)	x	x	-1
O=C(COC(=O)C12CC3CC(CC(C3)C1)C2)Nc1ccc([N+](=O)[O-])cc1Br	0%	-6%	0
N#Cc1cc([N+](=O)[O-])ccc1NC(=O)COC(=O)C12CC3CC(CC(C3)C1)C2	-2%	35µM*	x
CCOc1ccc(NC(=O)c2nn(Cc3ccccc3)c(=O)c3ccccc23)cc1OCC	x	x	4
Nc1nnnn1/N=C/c1ccc(Br)cc1	-2%	-1%	-11
Nc1nnnn1/N=C/c1cc(Br)ccc1O	x	x	-47*

Some of the entries above, reformatted.
SMILES,miR-21 FLuc,Apoferritin bind,LDHA inh
N#Cc1cc([N+](=O)[O-])ccc1NC(=O)COC(=O)C12CC3CC(CC(C3)C1)C2,-2%,35µM*,x
CCOc1ccc(NC(=O)c2nn(Cc3ccccc3)c(=O)c3ccccc23)cc1OCC,x,x,4
Nc1nnnn1/N=C/c1ccc(Br)cc1,-2%,-1%,-11
